According to PMC5520654 (Journal of immunology (Baltimore, Md. : 1950), 2017):

Test system: mice with CFA-induced inflammation
Details: mouse, in vivo

For “[^18F]fluoro-2-deoxy-2-D-glucose [FDG, reference compound]”, the “Inflamed paw (SUVmean)” value was 1.5 ± 0.1 and the Inflamed paw/muscle ratio was 21.4 ± 3.6.
